According to IntAct's records for PubMed 35512704:

B1: RAC-alpha serine/threonine-protein kinase (Homo sapiens), P31749 (parent)
chain: MSDVAIVKEGWLHKRGEYIKTWRPRYFLLKNDGTFIGYKERPQDVDQREAPLNNFSVAQCQLMKTERPRPNTFIIRCLQWTTVIERTFHVETPEEREEWTTAIQTVADGLKKQEEEEMDFRSGSPSDNSGAEEMEVSLAKPKHRVTMNEFEYLKLLGKGTFGKVILVKEKATGRYYAMKILKKEVIVAKDEVAHTLTENRVLQNSRHPFLTALKYSFQTHDRLCFVMEYANGGELFFHLSRERVFSEDRARFYGAEIVSALDYLHSEKNVVYRDLKLENLMLDKDGHIKITDFGLCKEGIKDGATMKTFCGTPEYLAPEVLEDNDYGRAVDWWGLGVVMYEMMCGRLPFYNQDHEKLFELILMEEIRFPRTLGPEAKSLLSGLLKKDPKQRLGGGSEDAKEIMQHRFFAGIVWQHVYEKKLSPPFKPQVTSETDTRYFDEEFTAQMITITPPDQDDSMECVDSERRPHFPQFSYSASGTA
partner: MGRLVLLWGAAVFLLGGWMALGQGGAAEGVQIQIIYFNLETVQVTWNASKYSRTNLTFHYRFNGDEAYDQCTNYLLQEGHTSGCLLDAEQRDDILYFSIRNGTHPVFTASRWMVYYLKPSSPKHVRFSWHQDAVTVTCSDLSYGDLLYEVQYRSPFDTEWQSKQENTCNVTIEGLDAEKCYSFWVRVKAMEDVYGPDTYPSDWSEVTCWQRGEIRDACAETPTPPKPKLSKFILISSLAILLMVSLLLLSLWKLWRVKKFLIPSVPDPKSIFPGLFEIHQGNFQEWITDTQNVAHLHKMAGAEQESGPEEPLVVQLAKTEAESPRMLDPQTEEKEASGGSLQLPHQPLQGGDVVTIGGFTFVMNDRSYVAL
B2: RAC-alpha serine/threonine-protein kinase (Homo sapiens), P31749 (parent)
chain: B1 chain
partner: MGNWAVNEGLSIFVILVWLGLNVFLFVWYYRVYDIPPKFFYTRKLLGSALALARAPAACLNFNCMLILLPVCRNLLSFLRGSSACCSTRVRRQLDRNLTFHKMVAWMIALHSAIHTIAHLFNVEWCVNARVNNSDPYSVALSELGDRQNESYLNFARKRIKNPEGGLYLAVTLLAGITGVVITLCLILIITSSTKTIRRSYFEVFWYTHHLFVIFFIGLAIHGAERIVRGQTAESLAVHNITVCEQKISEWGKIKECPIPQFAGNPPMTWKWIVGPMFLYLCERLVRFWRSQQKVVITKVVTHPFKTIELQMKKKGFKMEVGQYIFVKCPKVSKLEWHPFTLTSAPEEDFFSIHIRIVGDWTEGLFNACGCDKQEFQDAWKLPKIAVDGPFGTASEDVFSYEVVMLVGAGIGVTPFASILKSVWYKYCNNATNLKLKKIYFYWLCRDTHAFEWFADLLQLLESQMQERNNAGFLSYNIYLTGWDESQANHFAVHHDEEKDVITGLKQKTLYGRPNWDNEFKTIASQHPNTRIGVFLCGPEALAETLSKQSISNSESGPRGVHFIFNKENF
B3: RAC-alpha serine/threonine-protein kinase (Homo sapiens), P31749 (parent)
chain: B1 chain
partner: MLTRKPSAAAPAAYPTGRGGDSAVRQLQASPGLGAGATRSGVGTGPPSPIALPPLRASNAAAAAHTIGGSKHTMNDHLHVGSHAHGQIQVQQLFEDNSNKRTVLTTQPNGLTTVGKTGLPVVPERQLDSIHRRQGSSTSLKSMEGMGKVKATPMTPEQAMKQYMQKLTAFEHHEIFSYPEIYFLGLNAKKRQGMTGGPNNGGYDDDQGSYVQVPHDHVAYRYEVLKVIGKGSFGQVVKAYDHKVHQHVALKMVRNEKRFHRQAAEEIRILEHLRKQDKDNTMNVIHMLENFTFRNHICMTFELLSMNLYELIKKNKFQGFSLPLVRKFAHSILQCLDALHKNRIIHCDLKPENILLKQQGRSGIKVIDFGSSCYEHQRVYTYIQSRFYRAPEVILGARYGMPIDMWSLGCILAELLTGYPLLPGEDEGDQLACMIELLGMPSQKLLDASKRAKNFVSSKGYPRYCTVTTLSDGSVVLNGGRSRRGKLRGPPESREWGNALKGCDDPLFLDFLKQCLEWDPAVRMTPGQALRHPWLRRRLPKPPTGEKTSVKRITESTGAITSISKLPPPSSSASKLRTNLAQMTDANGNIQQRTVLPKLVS

Variants of: B1
Settings: with crlf2_human CRLF2, Q9HC73

Row | effect of a mutation on the interaction | Variant
1 | with no effect | MSDVAIVKEGWLHKRGKYIKTWRPRYFLLKNDGTFIGYKERPQDVDQREAPLNNFSVAQCQLMKTERPRPNTFIIRCLQWTTVIERTFHVETPEEREEWTTAIQTVADGLKKQEEEEMDFRSGSPSDNSGAEEMEVSLAKPKHRVTMNEFEYLKLLGKGTFGKVILVKEKATGRYYAMKILKKEVIVAKDEVAHTLTENRVLQNSRHPFLTALKYSFQTHDRLCFVMEYANGGELFFHLSRERVFSEDRARFYGAEIVSALDYLHSEKNVVYRDLKLENLMLDKDGHIKITDFGLCKEGIKDGATMKTFCGTPEYLAPEVLEDNDYGRAVDWWGLGVVMYEMMCGRLPFYNQDHEKLFELILMEEIRFPRTLGPEAKSLLSGLLKKDPKQRLGGGSEDAKEIMQHRFFAGIVWQHVYEKKLSPPFKPQVTSETDTRYFDEEFTAQMITITPPDQDDSMECVDSERRPHFPQFSYSASGTA [E17K]

Variants of: B2
Settings: with cy24b_human CYBB

Row | effect of a mutation on the interaction | Variant
2 | with no effect | MSDVAIVKEGWLHKRGKYIKTWRPRYFLLKNDGTFIGYKERPQDVDQREAPLNNFSVAQCQLMKTERPRPNTFIIRCLQWTTVIERTFHVETPEEREEWTTAIQTVADGLKKQEEEEMDFRSGSPSDNSGAEEMEVSLAKPKHRVTMNEFEYLKLLGKGTFGKVILVKEKATGRYYAMKILKKEVIVAKDEVAHTLTENRVLQNSRHPFLTALKYSFQTHDRLCFVMEYANGGELFFHLSRERVFSEDRARFYGAEIVSALDYLHSEKNVVYRDLKLENLMLDKDGHIKITDFGLCKEGIKDGATMKTFCGTPEYLAPEVLEDNDYGRAVDWWGLGVVMYEMMCGRLPFYNQDHEKLFELILMEEIRFPRTLGPEAKSLLSGLLKKDPKQRLGGGSEDAKEIMQHRFFAGIVWQHVYEKKLSPPFKPQVTSETDTRYFDEEFTAQMITITPPDQDDSMECVDSERRPHFPQFSYSASGTA [E17K]

Variants of: B3
Settings: with dyrk2_human DYRK2, Q92630

Row | effect of a mutation on the interaction | Variant
3 | with no effect | MSDVAIVKEGWLHKRGKYIKTWRPRYFLLKNDGTFIGYKERPQDVDQREAPLNNFSVAQCQLMKTERPRPNTFIIRCLQWTTVIERTFHVETPEEREEWTTAIQTVADGLKKQEEEEMDFRSGSPSDNSGAEEMEVSLAKPKHRVTMNEFEYLKLLGKGTFGKVILVKEKATGRYYAMKILKKEVIVAKDEVAHTLTENRVLQNSRHPFLTALKYSFQTHDRLCFVMEYANGGELFFHLSRERVFSEDRARFYGAEIVSALDYLHSEKNVVYRDLKLENLMLDKDGHIKITDFGLCKEGIKDGATMKTFCGTPEYLAPEVLEDNDYGRAVDWWGLGVVMYEMMCGRLPFYNQDHEKLFELILMEEIRFPRTLGPEAKSLLSGLLKKDPKQRLGGGSEDAKEIMQHRFFAGIVWQHVYEKKLSPPFKPQVTSETDTRYFDEEFTAQMITITPPDQDDSMECVDSERRPHFPQFSYSASGTA [E17K]
